Molecules are shown by their SMILES.

Among the data in BindingDB's records for PubMed 11082457 (Centre De Recherches De Croissy, 2000) are Ki values, retold here.

For the assay, the target named is T1, Nischarin (Bos mutus, UniProt L8IEU8).
T1 sequence (L8IEU8 whole entry): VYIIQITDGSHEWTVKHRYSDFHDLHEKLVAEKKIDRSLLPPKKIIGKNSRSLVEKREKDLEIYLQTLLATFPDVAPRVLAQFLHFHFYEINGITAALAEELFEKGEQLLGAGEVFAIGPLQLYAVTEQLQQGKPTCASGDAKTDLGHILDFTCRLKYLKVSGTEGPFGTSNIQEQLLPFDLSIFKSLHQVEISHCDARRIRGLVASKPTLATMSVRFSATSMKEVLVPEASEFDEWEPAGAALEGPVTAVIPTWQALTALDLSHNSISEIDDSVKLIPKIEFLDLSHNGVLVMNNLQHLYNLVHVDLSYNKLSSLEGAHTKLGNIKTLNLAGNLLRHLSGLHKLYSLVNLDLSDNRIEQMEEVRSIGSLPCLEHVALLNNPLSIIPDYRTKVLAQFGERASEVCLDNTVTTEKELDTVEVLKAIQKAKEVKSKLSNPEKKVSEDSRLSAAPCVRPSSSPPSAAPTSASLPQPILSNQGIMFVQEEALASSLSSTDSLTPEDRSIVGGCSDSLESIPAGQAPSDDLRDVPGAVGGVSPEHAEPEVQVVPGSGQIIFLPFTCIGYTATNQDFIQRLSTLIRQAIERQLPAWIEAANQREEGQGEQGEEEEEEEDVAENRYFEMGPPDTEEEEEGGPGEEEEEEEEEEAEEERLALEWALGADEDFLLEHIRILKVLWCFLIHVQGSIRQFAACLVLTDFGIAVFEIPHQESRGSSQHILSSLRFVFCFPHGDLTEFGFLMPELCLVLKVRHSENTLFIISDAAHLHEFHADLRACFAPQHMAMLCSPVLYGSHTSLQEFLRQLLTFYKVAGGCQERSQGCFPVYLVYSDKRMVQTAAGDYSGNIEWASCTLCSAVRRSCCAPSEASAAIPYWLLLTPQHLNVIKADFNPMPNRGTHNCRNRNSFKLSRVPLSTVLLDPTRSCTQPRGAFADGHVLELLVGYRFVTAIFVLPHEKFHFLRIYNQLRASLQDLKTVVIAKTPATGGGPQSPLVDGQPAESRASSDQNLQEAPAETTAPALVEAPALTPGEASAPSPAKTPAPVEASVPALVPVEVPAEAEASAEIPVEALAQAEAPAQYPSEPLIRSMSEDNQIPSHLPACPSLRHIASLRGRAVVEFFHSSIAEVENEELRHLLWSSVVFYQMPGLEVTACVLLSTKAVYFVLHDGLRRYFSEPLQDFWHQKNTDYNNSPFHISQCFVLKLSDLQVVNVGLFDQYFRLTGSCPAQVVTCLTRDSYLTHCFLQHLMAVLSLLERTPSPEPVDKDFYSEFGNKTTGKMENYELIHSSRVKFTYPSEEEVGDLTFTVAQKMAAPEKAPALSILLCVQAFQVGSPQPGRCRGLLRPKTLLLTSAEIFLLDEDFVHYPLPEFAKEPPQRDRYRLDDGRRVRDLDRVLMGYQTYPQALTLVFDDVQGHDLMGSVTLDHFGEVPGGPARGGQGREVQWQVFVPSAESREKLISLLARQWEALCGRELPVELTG

For the molecule `Clc1cccc(Cl)c1N=C1NCCN1` [2-(2,6-dichloroanilino)-2-imidazoline], the inhibition constant (Ki) – broadly, a measure of affinity in units of concentration, obtained from inhibition or displacement – is 31.6 nM.
